## Yeast mating assay 2: variants of the scFv Ab-91

Source: Engelhart et al. 2022 (doi:10.1038/s41597-022-01779-4), MIT Lincoln Laboratory and A-Alpha Bio; data file from the FLAb repository.

Binding partner: SARS-CoV-2 spike HR2 peptide, sequence PDVDLGDISGINAS.

Parent: Ab-91, a human scFv built as VL, a 15-residue (Gly4Ser)3 linker, VH. Only the CDRs of the heavy chain vary.
VL: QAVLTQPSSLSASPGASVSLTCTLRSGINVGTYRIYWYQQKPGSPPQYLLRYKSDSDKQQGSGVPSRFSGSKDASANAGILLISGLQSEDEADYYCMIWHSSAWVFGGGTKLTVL
VH: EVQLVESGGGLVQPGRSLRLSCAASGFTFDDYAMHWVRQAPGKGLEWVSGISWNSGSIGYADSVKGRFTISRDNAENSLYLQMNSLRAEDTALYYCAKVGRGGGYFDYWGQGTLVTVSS

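AAYL51 was designed without a model: most single CDR substitutions and a random sample of double and triple ones. The assay is AlphaSeq: two haploid yeast populations carry antibody and antigen on their surface. Pairs that bind mate more often; barcode pairs of the diploids are counted by sequencing. Read counts were normalised to the haploid input and turned into Kd by a linear fit to BCL2-family pairs of known affinity, for each replicate. There are three technical replicates.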

Variants are written as CDR1, CDR2 and CDR3 of the heavy chain (limits as in the source). Parent: GFTFDDYAMH, GISWNSGSIGYADSVK, VGRGGGYFDY.
This list gathers variants with a substitution at V99 (VH, numbered from residue 1).
Scale: log10 of Kd in nM, estimated from mating counts; low values are strong binders.
Replicates are averaged; those with no signal do not enter the mean.
Where no diploid with the target was found in any replicate, the entry reads "no signal": below detection, most likely a poor binder, though not proof of it.
Empty control strains, which show no peptide, gave a signal in 21% of pairings with library AAYL51; the median was 4.54 and 95% of these signals were weaker than 3.26. No background was subtracted.

Variant GFTFDDYAFH | EISWNSGSIGYADSVK | QGRGGGYFDY showed no signal (0 of 3 replicates). For GFTFDDYATH | GISWNSGSIGTADSVK | NGRGGGYFDY, the assay gave 3.53 (1 of 3 replicates). For GFTFDDYAMH | GISWNSGSQGYADSVK | QGYGGGYFDY, the assay gave no signal (0 of 3 replicates). Variant GFTFDDYAMH | GISWNSGSIGYADSVK | RGRGGGYWDV showed 4.00 (1 of 3 replicates). Variant GFTFDDYAMH | GIWWNSGSIGYWDSVK | QGRGGGYFDY showed no signal (0 of 3 replicates). For GFTFDDYAMH | GISWNSGSIGQADSCK | SGRGGGYFDY, the assay gave 4.97 (1 of 3 replicates). Variant GFTFDDYYMH | LISWNSGSIGYADSVK | FGRGGGYFDY showed no signal (0 of 3 replicates).

For GFTFDPYAMH | GISWNSGSIGYADSVK | YGRGGGYFHY, the assay gave no signal (0 of 3 replicates). Variant GFTFDDYAMH | GISWNSGSIGEADSVK | LGRGGGYFDY showed no signal (0 of 3 replicates). With GFTFDDYAMH | GISCNSGSIGYADSVK | IGRGGGYFDY the result was 1.08 (3 of 3 replicates). Variant GFTFDDYAMH | AISWNSGSIGYADSVK | PGRGGGYFDY gave 4.74 (2 of 3 replicates). With GFTFDDYAMH | GIQWNSGSIGYALSVK | IGRGGGYFDY the result was 3.42 (2 of 3 replicates). Variant GFTFDDYAMH | GISWNSGSIGYADVVK | CGRYGGYFDY gave no signal (0 of 3 replicates). With GMTFDDYAMH | GISWNGGSIGYADSVK | PGRGGGYFDY the result was 3.68 (3 of 3 replicates).

With GFTFDDYAMH | GISWNSGSIGYADIVK | PGHGGGYFDY the result was no signal (0 of 3 replicates). Variant GFTFDDGAMH | GISWNSGSIGYADSVK | WGRGGFYFDY showed no signal (0 of 3 replicates). With GFTFDDYAMH | GQSWNQGSIGYADSVK | DGRGGGYFDY the result was no signal (0 of 3 replicates). Variant GFTFFDYAYH | GISWNSGSIGYADSVK | MGRGGGYFDY showed 3.51 (1 of 3 replicates). For GFTFDDYAMH | GISWNSGSIGPWDSVK | RGRGGGYFDY, the assay gave no signal (0 of 3 replicates). With GFTFDDYAMH | GISWNSGSIGYADSVK | AGRGGGYFDY the result was 4.56 (2 of 3 replicates). With QFTFDDYAMH | GISWNSGSIGYADSVK | CGRNGGYFDY the result was no signal (0 of 3 replicates).

With GFTFDDYAMH | GISWNSHSIQYADSVK | NGRGGGYFDY the result was no signal (0 of 3 replicates). Variant GFTFDDYAMH | GISWNSGSIGYADSVK | RGPGGGYFDM showed 5.47 (1 of 3 replicates). For GFTFDDYAMH | GISPNSGSIGYADSVK | WGRGGGYCDY, the assay gave 4.13 (1 of 3 replicates). For GVMFDDYAMH | GISWNSGSIGYADSVK | FGRGGGYFDY, the assay gave no signal (0 of 3 replicates). With GFTFDDYAMV | GISWNSGWIGYADSVK | EGRGGGYFDY the result was 4.36 (2 of 3 replicates). With GFTFDDYAML | GISWNSGSIGYADSVE | GGRGGGYFDY the result was 5.08 (1 of 3 replicates). Variant AFTFDDYAMH | GISWNSGSINYADSVK | RGRGGGYFDY showed 4.55 (1 of 3 replicates).

For GFTFDDYAMH | GISNNSGSIGYADSVV | NGRGGGYFDY, the assay gave 5.12 (3 of 3 replicates). Variant GFTFEDYAMH | GISWNSGLIGYADSVK | DGRGGGYFDY gave 5.51 (1 of 3 replicates). For GFTFDDYAMH | GICWNSGSIGYADSVK | TGRGAGYFDY, the assay gave no signal (0 of 3 replicates). Variant GFTFDDYAMH | GISWNSGSIGYLDSVK | MGRGGSYFDY gave no signal (0 of 3 replicates). Variant GETFDDYAMH | GISWNSGSIGYADSVK | EGRGGSYFDY gave no signal (0 of 3 replicates). Variant GFYFDDYAMH | GISWNSGSIGYADSVK | EFRGGGYFDY showed no signal (0 of 3 replicates). Variant GFTFDDYAMH | GISWNSGSLGYADFVK | YGRGGGYFDY showed 4.39 (1 of 3 replicates).

Variant GFTFDDYALH | GISWNSGYIGYADSVK | KGRGGGYFDY gave 4.28 (3 of 3 replicates). For GFTFDDYAMH | GISWNSGSIGYADSLK | IGRGGGYFDY, the assay gave 5.44 (1 of 3 replicates). Variant GFTFDDYAMH | DISWNSGSIGYADSIK | DGRGGGYFDY showed no signal (0 of 3 replicates). For GFCFDDYAMH | GISWNSGSIGYADSVK | TGRGGGYFDY, the assay gave 5.87 (2 of 3 replicates). Variant GFTFYDYTMH | GISWNSGSIGYADSVK | NGRGGGYFDY gave 5.05 (1 of 3 replicates). With GFTFDDYAMH | GIAWNSGSIGYADSVK | HGRGGGYFDY the result was 4.58 (1 of 3 replicates). For GFTFDDYAMH | GISWNSGSIGYALSVK | DGRGGGYFDY, the assay gave 2.15 (3 of 3 replicates).

For LFTFDDYAMH | GISWNSGSIGYADSVK | IGRGGGYFDY, the assay gave 4.42 (3 of 3 replicates). For GFTFDYYAMH | GISWHSGSIGYADSVK | EGRGGGYFDY, the assay gave 3.03 (2 of 3 replicates). With GFTFDDYAMH | GISWNSGSIGWADSVK | PGCGGGYFDY the result was no signal (0 of 3 replicates). Variant GFTFDDYAMH | GISANSGSIGYADSVK | AGRGGGGFDY showed no signal (0 of 3 replicates). Variant GFTFDDYAHH | GISWNVGSIGYADSVK | HGRGGGYFDY showed 4.63 (2 of 3 replicates).

The 6 strongest on average among those seen in every replicate, once more:

GFTFDDYAMH | GISCNSGSIGYADSVK | IGRGGGYFDY: 1.08 (3 of 3 replicates).
GFTFDDYAMH | GISWNSGSIGYALSVK | DGRGGGYFDY: 2.15 (3 of 3 replicates).
GMTFDDYAMH | GISWNGGSIGYADSVK | PGRGGGYFDY: 3.68 (3 of 3 replicates).
GFTFDDYALH | GISWNSGYIGYADSVK | KGRGGGYFDY: 4.28 (3 of 3 replicates).
LFTFDDYAMH | GISWNSGSIGYADSVK | IGRGGGYFDY: 4.42 (3 of 3 replicates).
GFTFDDYAMH | GISNNSGSIGYADSVV | NGRGGGYFDY: 5.12 (3 of 3 replicates).